What was measured:
[1] = Amounts of biopterins and BH4 in liver, kidneys and brain after single-dose oral administration to hph-1 mice; format: in vivo; conditions: 10 mg/kg oral single dose, 3 hours later
Procedure: Mutated hph-1 mice having low levels of BH4 in the body due to a mutation in the regulatory region of GTP cyclohydrolase 1 (GTPCH1) gene, which is one of the genes involved in biosynthesis of BH4 (males, age 6 weeks, able to be acquired and produced by a person with ordinary skill in the art based on the description of Vernon C. Bode, et al., Genetics, 118, 299-305 (1988)), were used for the test mice. Biopterin was administered orally (suspended in 2% carboxymethyl cellulose solution (CMC solution)) at 10 mg/kg (amount of biopterin per 1 kg of body weight) to 4 test animals. 2 test animals were administered 2% CMC solution only for use as controls (comparative examples) thereof.
Each of the mice were autopsied 3 hours later, and the liver, kidneys and brain were excised and weighed followed by rapid-freezing in liquid nitrogen and storing at −80° C. The frozen organs were partially thawed followed by the addition of 5 volumes of 0.1 N HCl and homogenizing with a homogenizer. […]
Quantification of biopterins was carried out in accordance with the method described in the prescribed literature (Fukushima, T., Nixon, J C., Anal. Biochem., 102, 176-188 (1980)). Namely, since biopterins are completely oxidized to biopterin in the case of iodine oxidation under acidic conditions, the entire amount of biopterins can be quantified. On the other hand, since only BH4 is oxidized to pterin while other biopterins are oxidized to biopterin in the case of iodine oxidation under alkaline conditions, the entire amount of biopterins other than BH4 can be quantified. Thus, the amount of BH4 can be quantified utilizing the difference between acidic conditions and alkaline conditions. Furthermore, analysis of biopterin was carried out by high-performance liquid chromatography (column: Fine-SIL C18T-5, eluent: aqueous 7% methanol solution, detection: fluorescence, excitation: 350 nm, detection: 450 nm).

[2] = Blood BH4 concentrations during oral administration for 6 consecutive days to hph-1 mice; format: in vivo; conditions: hph-1 mice, 0.5, 0.7, 1 and 2 mg/kg oral, 6 consecutive days at 24-hour intervals, blood every 48 hours; all dosages
Procedure: In Example 2, biopterin (0.5 mg/kg, 0.7 mg/kg, 1 mg/kg and 2 mg/kg) was orally administered for 6 consecutive days at 24-hour intervals to each of the hph-1 mice (age 10 weeks, males, total of 4 animals), and blood samples were collected every 48 hours. Quantification of blood BH4 concentrations was carried out in the same manner as Example 1 with the exception of using an acid-iodine solution (2% I2 and 3% KI in 0.5 N HCl) or alkaline-iodine solution (2% I2 and 3% KI in 1 N NaOH) in a composition exclusively for use with blood for a mixture 20 μL of blood and 80 μL of distilled water.

[3] = Biopterins and BH4 in urine after single-dose oral or intraperitoneal administration to normal mice; format: in vivo; conditions: normal C57-BL/6J mice, 20 mg/kg oral or intraperitoneal single dose, urine 6 hours later; either administration method
Procedure: In Example 4, an experiment was carried out in the same manner as Example 1 with the exception of the test mice, dosages, administration site (intraperitoneal administration) and sampling site. More specifically, biopterin was administered orally or intraperitoneally to normal C57-BL/6J mice (acquired from Japan SLC, Inc., age 8 to 10 weeks, males) in groups of 2 animals each at a dosage of 20 mg/kg, and the total amount of biopterins contained in urine samples collected 6 hours later were quantified.

[4] = BH4 concentration in the brain after oral administration for 3 consecutive days to hph-1 mice; conditions: 5 mg/kg oral, 3 consecutive days at 24-hour intervals, 2.5 hours after final dosing, versus non-dose group

## 6-(L-erythro-1,2-dihydroxypropyl)-pterin or 7-(L-erythro-1,2-dihydroxypropyl)-pterin [biopterin]
[1]
  BH4 ratio (BH4 among biopterins) in organs: high BH4 ratio was found to be maintained
[1]; versus 2% CMC controls
  amounts of BH4 among the biopterins in each of the organs (liver, kidneys, brain): increased significantly
  amounts of biopterins in each of the organs (liver, kidneys, brain): increased considerably
[2]
  blood BH4 concentrations: gradual increases
[3]
  BH4 levels in urine: increased significantly
  biopterin levels (total biopterins) in urine: increased considerably
[4]
  intracerebral BH4 concentrations: remarkable increase
